{
  "source": "patent US20250387506A1",
  "about": "“Carborane-Based Boron-Enriched PEG Linkers for mAb Ligation Synthesis and Methods” (TAE Life Sciences LLC, priority 2024, published 2025)",
  "origin": "cited, not measured here",
  "key": {"[1]": {"system": "F98 glioma (wt and EGFRvIII tumors)", "conditions": "24 hr, intra-brain injection, brain orthotopic F98 glioma"}, "[2]": {"system": "EGFR-expressing F98 rat glioma cells", "conditions": "radio-iodinated conjugate"}},
  "data": [
    {"substance": "cetuximab targeted borylated dendrimer", "values": [
      {"measurement": "Boron concentration in surrounding normal right and left brain", "setting": "[1]", "result": "15±5", "unit": "μg/g tissue"},
      {"measurement": "Boron concentration in tumor", "setting": "[1]; EGFRvIII tumor for the conjugate", "result": "over 90 μg/g tissue"},
      {"measurement": "Dose-response on incubation with cells (immunoreactivity)", "setting": "[2]", "result": "saturable dose-response"}
    ]}
  ]
}
